Here are results for one molecule from ChEMBL document CHEMBL2311493, “Focused pseudostatic hydrazone libraries screened by mass spectrometry binding assay: optimizing affinities toward γ-aminobutyric acid transporter 1” (J Med Chem, 2013).

Structures are written as SMILES. pIC50: −log10 of the molar value.

The assay addresses Sodium- and chloride-dependent GABA transporter 1 (Mus musculus, UniProt P31648). The assay is described as follows: Inhibition of [3H]GABA uptake at mouse GAT1 expressed in HEK293 cells after 25 mins by scintillation counting analysis. Type of assay: cell-based.

In the case of `O=C(O)C1CCCNC1` (stereo unspecified) [NIPECOTIC ACID], the pIC50 was 5.10.

The pIC50 is the negative decadic logarithm of the IC50, by convention in mol/L. Read a high pIC50 as a low IC50.
